Values of other authors in paper PMC2374394, “Relationships between hydrophobicity, reactivity, accumulation and peripheral nerve toxicity of a series of platinum drugs” (British Journal of Cancer, 2000).

Test system: patients
Details: ref Machover et al, 1996; cited from earlier work

O=C1[O][Pt-2]2([NH2+]C3CCCC[C@H]3[NH2+]2)[O]C1=O (stereo partly drawn) [Oxaliplatin, R,R-(DACH)Pt(oxalato)]
Incidence of neurotoxicity in patients % (95% CI): 97 (92-99) %
